Bioassay records as filed in PubChem.
In the library only some 2.1% were active in any assay of this set; here they are far more common.
MITF act = MITF TRPM1 promoter activation in melanoma cells | SK-MEL-5 TRPM1-promoter luciferase, 24 h; % of positive control, neutral wells = 0 | activation, % at 12.5 µM | 0.75% of 300,000 active | AID 588334;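 active means mean activation of at least 80% with every replicate also reaching 80%; inconclusive means mean reaches 80% but some replicate falls short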;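 further: 0% = neutral control wells and 100% = parthenolide positive control wells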
MITF TRPM1 inh = MITF TRPM1 promoter inhibition in SK-MEL-5 cells; 0.83% of 330,000 active; AID 488899; inhibition, % at 12.5 µM; SK-MEL-5 TRPM1 promoter luciferase, 24 h;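 active means mean inhibition across replicates of 60% or more, whatever share of single replicates reaches that level; inconclusive means some that reach 60%, reason not given; inactive means mean inhibition across replicates below 60%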
PGC1a acetyl inh = lowers PGC1a acetylation signal in U2OS cells; inhibition, % at 15.6 µM; 0.17% of 350,000 active; AID 651687; AlphaScreen anti-acetyl-lysine; with virally co-expressed GCN5 acetyltransferase;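 active means every replicate shows inhibition of at least 40%; inconclusive means mean inhibition at least 40% but some replicate below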;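 further: 0% = neutral control wells and 100% = positive control wells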
Wnt bcat act = Wnt/beta-catenin pathway activation | 1.2% of 300,000 active | Wnt/beta-catenin reporter cell assay, activator, plate reader | activation, % at 9.35 µM; in the data active means activation above about 30%, passing the limit was not always enough; inconclusive means no clear call, values can overlap the other calls;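 further: 0% = neutral control wells and 100% = positive control wells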
miR122 inh = blocks miR-122 activity in Huh7 sensor cells | AID 602342 | 0.3% of 340,000 active | activation (reporter increase), % at 12.5 µM | Huh7 miR-122 Renilla luciferase sensor, 48 h; neutral wells = 0, positive control = 100;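 active means mean replicate activation score at least 90 and every replicate individually at or above 90; inconclusive means only one of the two criteria met; inactive means neither criterion met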;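 further: higher luciferase means less miR-122 activity so hits act as miR-122 inhibitors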
Yeast UUG start = modulators of yeast start codon fidelity, primary screen, whole organism, S. cerevisiae, single point, plate reader | AID 602363, 2012 | S. cerevisiae UUG-firefly luciferase reporter, luminescence/redox ratio | activity score, % at 18.7 µM | hit rate 0.13% among 350,000;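 active = replicate mean at a twofold rise or more, about +100% in these data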;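 also: firefly luciferase made from a UUG start codon reports start codon fidelity; reporter light over untreated wells divided by growth signal over untreated wells; some hits fall short of that in this replicate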
* hit, by the source's call; ? = inconclusive; · = not tested or not shown; [ ] = another dose, or the depositor's remark.

The line under a structure holds: MITF act	MITF TRPM1 inh	PGC1a acetyl inh	Wnt bcat act	miR122 inh	Yeast UUG start
Cc1ccnc(SCC(=O)c2cccs2)n1
→ 93*	-96	2	44*	·	·
COc1ccccc1C(=O)Nc1nc2cc3c(cc2s1)OCCO3
→ 12	-13	2	·	10	-5
COc1ccc2nc(NC(=O)c3cccs3)sc2c1
→ ·	·	1	48*	-3	-15
C[C@H](CO)N1C[C@H](C)[C@H](CN(C)C(=O)Cc2ccccc2)OCCCC[C@H](C)Oc2ccc(NC(=O)CCC(F)(F)F)cc2C1=O
→ ·	·	-2	·	3[16.7 µM]	14
C[C@H](O)C#Cc1ccc2c(c1)O[C@@H](CN(C)C(=O)c1ccccc1)[C@@H](C)CN([C@H](C)CO)S2(=O)=O
→ ·	·	16	·	-4[16.7 µM]	21
C[C@@H]1CN([C@H](C)CO)C(=O)c2cc(C#Cc3cccc(F)c3)cnc2O[C@H]1CN(C)C(=O)c1ccccc1F
→ ·	·	-4	·	-3[16.7 µM]	-18
COc1ccc(S(=O)(=O)NC2CCCCC2)c(C)c1C
→ 0	1	-2	-1	111*	1
COc1ccc(C)cc1S(=O)(=O)NC1CCCCCC1
→ 14	-14	·	-3	101*	-5
COc1ccc(OC)c(S(=O)(=O)NC2CCCCC2)c1
→ -9	10	4	-1	84	-14
O=C(C[C@H]1CC[C@H]2[C@@H](COC[C@@H](O)CN2Cc2ccccc2)O1)NCCc1ccccc1
→ ·	·	2	·	-1[16.7 µM]	·
Cc1cc(C)cc(C(=O)O/N=C(\N)c2ccc(Br)cc2)c1
→ 21	-18	-4	·	4	-22
N/C(=N\OC(=O)c1ccoc1)c1ccc(Br)cc1
→ 93*	-93	4	42*	2	-14
CC(C)NC(=O)N(C)C[C@H]1Oc2cc(C#CC3CC3)ccc2S(=O)(=O)N([C@@H](C)CO)C[C@@H]1C
→ ·	·	-3	·	-21[16.7 µM]	15
S=c1[nH]nc(-c2ccncc2)n1/N=C/c1cn(-c2ccccc2)nc1-c1ccccc1
→ ·	·	-6	37*	-7	-17
CC1CC(C)CN(C(=O)c2cc3cc(Br)cc(Br)c3o2)C1 (stereo not given)
→ 83*	-74	·	1	·	·
O=C(/C=C\Nc1ccc2c(c1)OCO2)c1cccs1
→ -14	10	5	10	7	2
O=C(/C=C\Nc1ccc2c(c1)OCO2)c1ccccn1
→ -75	75*	-8	·	3	-72
O=C(Nc1cccc(S(=O)(=O)Nc2ccc(Cl)cc2)c1)c1ccccn1
→ -7	6	0	-1	129*	2
O=C(Nc1ccc2c(c1)OCO2)c1ccccn1
→ 58	-47	2	46*	7	-30
O=C(Nc1ccc2c(c1)OCO2)c1cnccn1
→ 44	-46	·	-2	·	·

Reformatted: results already given.
> COc1ccccc1C(=O)Nc1nc2cc3c(cc2s1)OCCO3
  MITF act: 12
  MITF TRPM1 inh: -13
  PGC1a acetyl inh: 2
  Wnt bcat act: ·
  miR122 inh: 10
  Yeast UUG start: -5
> COc1ccc2nc(NC(=O)c3cccs3)sc2c1
  MITF act: ·
  MITF TRPM1 inh: ·
  PGC1a acetyl inh: 1
  Wnt bcat act: 48*
  miR122 inh: -3
  Yeast UUG start: -15

Going on with the list:
The line under a structure holds: MITF act	MITF TRPM1 inh	PGC1a acetyl inh	Wnt bcat act	miR122 inh	Yeast UUG start
C=CCNC(=O)C1CC(=O)N(c2ccc(OCc3ccc(F)cc3)cc2)C1 (stereo not given)
→ 47	-52	-25	37*	-2	-22
O=C1c2ccc(-c3ccc4c(c3)C(=O)N(CCCO)C4=O)cc2C(=O)N1CCCO
→ ·	9	70*	-2	2	-15
COc1ccc2c3c(n(C)c2c1)[C@H](CO)N(C(=O)Nc1ccccc1F)CC31CN(C(C)=O)C1
→ ·	·	-7	·	·	·
Cc1nn(-c2nc3ccccc3s2)c(N)c1-c1ccccc1
→ ?	-77	-6	?	10	-13
Cc1nn(-c2nc3ccccc3s2)c(N)c1-c1ccc(Cl)cc1
→ 79	-78	4	41*	-3	-8
Cc1cc(C)n(-c2nc3ccccc3s2)n1
→ 53	-47	·	52*	·	·
Nc1ccc2nn(-c3ccccc3)nc2c1
→ 1	-2	-9	12	6	-8
Nc1cc2nn(-c3ccccc3)nc2cc1Cl
→ 2	-1	·	49*	·	·
CC(C)(C)NC(=O)NC(=O)COc1ccccc1C#N
→ 121*	-108	4	40*	-4	-2
C=CCNC(=O)COc1ccccc1C#N
→ -1	-1	·	1	·	·
S=c1nc(-c2ccccc2)oc2c1CCCC2
→ 56	-48	-4	74*	4	11
CCCC(C)NS(=O)(=O)c1ccc(OC)c(C)c1 (stereo not given)
→ ·	6	-7	·	153*	-5
O=C(Nc1ccccc1)Nc1ccc2c(c1)[C@H]1C[C@H](CC(=O)N3CCCCC3)O[C@@H](CO)[C@H]1O2
→ ·	·	-12	·	2[16.7 µM]	13
CC(C)(C)C(=O)N1CCN(c2nc3ccccc3s2)CC1
→ 122*	-123	-2	20	9	-14
CCCC(=O)N1CCN(c2nc3ccccc3s2)CC1
→ 96*	-94	-13	0	-3	-27
CC1CCN(C(=O)CSc2nc3ccccc3s2)CC1
→ 38	-36	5	42*	5	-10
CCN1CCN(C(=O)c2ccc(-c3nc4ccccc4s3)s2)CC1
→ 31	-28	·	49*	-2	·
COC(=O)C1C(=O)c2c([nH]c(C(=O)OC3CCCCCC3)c2C)CC1C (stereo not given)
→ 87*	-84	·	16	-4	-7
O=C(C[C@@H]1C=C[C@H](NC(=O)Nc2ccc(C(F)(F)F)cc2)[C@@H](CO)O1)NCc1ccccn1
→ ·	·	-3	·	·	0
Nc1ccc(Oc2ccccc2-c2ccccc2)cc1
→ ·	66*	-10	-1	3	-25

Following part
The line under a structure holds: MITF act	MITF TRPM1 inh	PGC1a acetyl inh	Wnt bcat act	miR122 inh	Yeast UUG start
NCCOc1ccccc1-c1ccccc1
→ ·	0	-4	·	3	4
O=C1O[C@@H](c2ccccc2)[C@@H](c2ccccc2)N2[C@@H](c3ccc(O)cc3)[C@]3(C(=O)Nc4ccc(C#CC5(O)CCCCCC5)cc43)[C@@H](C(=O)N3CCCCCCC3)[C@H]12
→ ·	·	·	·	·	13
Cc1cc(C)n(/C(=C\N(C)C)C(=O)c2cccc([N+](=O)[O-])c2)n1
→ ·	·	·	2	-3	-6
Cc1cc(C)n(C(=O)c2ccc([N+](=O)[O-])cc2N)n1
→ 0	2	44*	-1	1	-13
CO[C@@H]1CN(C)C(=O)c2ccc(NC(=O)C3CC3)cc2OC[C@H](C)N(Cc2ccncc2)C[C@@H]1C
→ ·	·	6	·	·	·
CSc1ncccc1C(=O)OCC(=O)c1cc(C)n(C)c1C
→ 92*	-86	-6	53*	·	-11
CCNC(=O)c1cc2c(c(-c3cccc(-c4cccc(F)c4)c3)n1)[C@H](CCO)N([S@@](=O)C(C)(C)C)C2
→ ·	·	13	·	·	·
C[C@@H]1CN([C@@H](C)CO)S(=O)(=O)c2ccc(C#CCN(C)C)cc2O[C@H]1CN(C)Cc1ccc(F)cc1
→ ·	·	-17	·	-18[16.7 µM]	-5
O=C(C=Cc1ccccc1)CC(c1ccccc1)N1CCOCC1 (stereo not given)
→ -75	76*	12	10	16	-10
CC(C)(C)c1nn(-c2ccccc2)c2[nH]c(=O)c(CNCc3ccc4c(c3)OCO4)cc12
→ -67	66*	-17	·	0	-10
CCOc1cccc(NCc2cc3c(C(C)(C)C)nn(-c4ccccc4)c3[nH]c2=O)c1
→ -7	6	-4	-1	-2	1

A few values from above.
Yeast UUG start result of `O=C1O[C@@H](c2ccccc2)[C@@H](c2ccccc2)N2[C@@H](c3ccc(O)cc3)[C@]3(C(=O)Nc4ccc(C#CC5(O)CCCCCC5)cc43)[C@@H](C(=O)N3CCCCCCC3)[C@H]12` = 13
PGC1a acetyl inh result of `CO[C@@H]1CN(C)C(=O)c2ccc(NC(=O)C3CC3)cc2OC[C@H](C)N(Cc2ccncc2)C[C@@H]1C` = 6
Yeast UUG start result of `CC(C)(C)c1nn(-c2ccccc2)c2[nH]c(=O)c(CNCc3ccc4c(c3)OCO4)cc12` = -10
Wnt bcat act result of `Cc1cc(C)n(C(=O)c2ccc([N+](=O)[O-])cc2N)n1` = -1
Yeast UUG start result of `C[C@@H]1CN([C@@H](C)CO)S(=O)(=O)c2ccc(C#CCN(C)C)cc2O[C@H]1CN(C)Cc1ccc(F)cc1` = -5
